Results on 1 molecule are retold here after PubChem BioAssay AID678 (Vanderbilt High Throughput Screening Facility, 2007).

Shown are results outside the selection of hits, which stands elsewhere. Active and inactive are the calls of the source.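 Rule for the calls: active = fluorescence response below the plate's average for near-maximal glutamate wells, less 3 SD of those wells; inactive = the rest.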

The target in this assay is Metabotropic glutamate receptor 4 (Homo sapiens) (UniProt Q14833). The assay can be described thus: mGluR4 calcium signal in M1 antagonist follow-up – cell-based, antagonist mode, secondary assay 1, M1 allosteric modulator project (AID 678).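 Note: raw unnormalized fluorescence span taken in the window right after glutamate addition.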 The following applies: CHO-mGluR4 calcium flux, Fluo-4 fluorescence, glutamate EC80; at 10 µM; active compounds read low.
As to `C[N+]1(C)[C@@H]2CC(OC(=O)[C@H](CO)c3ccccc3)C[C@H]1[C@@H]1O[C@@H]12` (stereo partly specified), the fluorescence response (max-min) is inactive: 245.
